This passage reports IC50 results from BindingDB's records for doi:10.1016/j.ejmech.2020.112648 (Shenzhen Technology University, 2020).

The test deals with T1, Histone deacetylase 8 (Homo sapiens, UniProt Q9BY41).
T1 sequence (Q9BY41 whole entry): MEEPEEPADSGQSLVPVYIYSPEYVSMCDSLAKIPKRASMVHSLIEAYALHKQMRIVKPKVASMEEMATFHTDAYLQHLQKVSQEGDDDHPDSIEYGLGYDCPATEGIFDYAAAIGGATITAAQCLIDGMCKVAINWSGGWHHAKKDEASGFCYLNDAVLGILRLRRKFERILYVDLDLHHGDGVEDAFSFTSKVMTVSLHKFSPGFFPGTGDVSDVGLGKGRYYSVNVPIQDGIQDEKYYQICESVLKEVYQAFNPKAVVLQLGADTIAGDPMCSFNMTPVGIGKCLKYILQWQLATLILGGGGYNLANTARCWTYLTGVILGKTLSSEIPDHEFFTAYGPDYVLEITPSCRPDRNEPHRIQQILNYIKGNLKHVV
The test is described as follows: Inhibition of recombinant human full-length C-terminal His-tagged HDAC8 expressed in baculovirus infected Sf9 insect cells using Ac-Leu-Gly-Lys(Tfa)-AMC as substrate measured after 30 mins by fluorescence assay.

In general, IC50 refers to the concentration that inhibits the measured activity by half. In the case of `O=C(CCCCCCC(=O)Nc1ccccc1)NO` [Zolinza], the IC50 is greater than 1000 nM.
